Tested on: L6
Assay: Cytotoxicity against rat L6 cells
Assay type: cell-based

SMILES: CC(=O)OC1(C#N)CN2CCC1CC2 (stereo unspecified)
- CC50: 18 µM

Source: ChEMBL document CHEMBL1649477, “Trypanothione reductase high-throughput screening campaign identifies novel classes of inhibitors with antiparasitic activity” (Antimicrob Agents Chemother, 2009)
